The record followed here is ChEMBL document CHEMBL1149991, “Benzofuran based angiotensin II antagonists related to GR117289: enhancement of potency in vitro and oral activity” (Bioorg Med Chem Lett, 1993).

Protein sequences, listed by entry. Tags and fused reporters are not part of them.
UniProt P34976, whole entry: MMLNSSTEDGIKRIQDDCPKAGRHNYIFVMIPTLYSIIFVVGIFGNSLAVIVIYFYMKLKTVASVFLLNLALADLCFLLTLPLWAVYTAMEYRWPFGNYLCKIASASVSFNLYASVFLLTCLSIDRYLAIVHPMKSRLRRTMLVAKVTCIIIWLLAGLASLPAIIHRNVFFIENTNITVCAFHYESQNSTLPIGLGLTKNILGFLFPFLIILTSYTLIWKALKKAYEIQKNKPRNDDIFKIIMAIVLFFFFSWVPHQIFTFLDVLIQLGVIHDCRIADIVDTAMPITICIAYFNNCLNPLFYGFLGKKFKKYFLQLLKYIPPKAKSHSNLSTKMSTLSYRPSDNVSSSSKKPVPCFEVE

Structures are written as SMILES.

As usually defined, the pKB is the KB on a negative log10 scale, so that one unit is a factor of ten. A lower pKB goes with a large KB.

This test has as its target Type-1 angiotensin II receptor (Oryctolagus cuniculus) (UniProt P34976). Nature of the test: In vitro for its antagonistic activity against angiotensin II type 1 receptor in Rabbit Aorta. In kind it is functional, tissue-based.

For the compound `CCCCc1nc(Cl)c(C(=O)O)n1Cc1ccc2oc(-c3ccccc3-c3nnn[nH]3)c(Br)c2c1`, the pKB turned out to be 9.8.
